Measured values taken from patent publication US9295253B2, “Use of abscisic acid on ornamental plants” (Valent BioSciences Corporation, priority 2007, dated 2016).

What was measured:
Pansy = experiment: Drought tolerance and side effects after ABA drench, irrigation withheld; assay type: in vivo
Source text: (§1) Many different commercial ornamental crops were obtained from local retailers, or from wholesale nurseries, and transported to a greenhouse for testing. Plants were watered to saturation and allowed to stand and drain for about one hour. Plants were selected for uniformity based on leaf area and arranged in a randomized complete block design, or a completely randomized design, on the greenhouse bench. The plants were sprayed or drenched with water or treatment solution equaling about 5-10% of the pot volume. The plants were held without irrigation until all the plants wilted to a point when they were determined to be unmarketable. The plants were rated daily for the extent of wilting on a scale from 1 for no wilting to 4 for complete wilting. A rating of 2.5 was the point at which a plant was determined to be unmarketable and the previous day was recorded as the marketable life of that plant in days. The plants were rated for the extent of lower leaf yellowing or leaf or flower abscission on a scale from 1 for no yellowing or abscission to 4 for complete yellowing or abscission. A rating of 2.5 was the point at which a plant was determined to be unmarketable.
(§2) Ornamental bedding plants were treated (sprayed or drenched) with water or 250 ppm abscisic acid (S-ABA; ABA; S-(+)-abscisic acid; +-ABA, (+)-(S)-cis,trans-abscisic acid, (+)-(S)-cis,trans-ABA; S-ABA; (S)-5-(1-hydroxy-2,6,6,-trimethyl-4-oxo-2-cyclohexen-1-yl)-3-methyl-(2Z,4E)-pentadienoic acid; CAS no. 21293-29-8) and then irrigation was withheld until all the plants wilted. Plants were individually rated on a daily basis for degree of wilting and other undesirable characteristics like leaf yellowing.
(§3) In Table 1, plants were drenched with water or a 250 ppm ABA solution, and held in a greenhouse without irrigation.

Salvia = experiment: as above; assay type: in vivo; conditions: 250 ppm ABA drench, 2.5 = unmarketable, 4 = severe
Source text: as §1, §2, §3

Alyssum = experiment: as above; assay type: in vivo; conditions: 250 ppm ABA drench, 2.5 = unmarketable, 4 = severe
Source text: as §1, §2, §3

Agapanthus = experiment: as above; assay type: in vivo; conditions: 250 ppm ABA drench, 2.5 = unmarketable, 4 = severe
Source text: as §1, §2, §3

Poinsettia = experiment: as above; assay type: in vivo; conditions: 250 ppm ABA drench, 2.5 = unmarketable, 4 = severe
Source text: as §1, §2, §3

Gazania = experiment: as above; assay type: in vivo; conditions: 250 ppm ABA drench, 2.5 = unmarketable, 4 = severe
Source text: as §1, §2, §3

Impatiens = experiment: as above; assay type: in vivo; conditions: 250 ppm ABA drench, 2.5 = unmarketable, 4 = severe
Source text: as §1, §2, §3

Cosmos = experiment: as above; assay type: in vivo; conditions: 250 ppm ABA drench, 2.5 = unmarketable, 4 = severe
Source text: as §1, §2, §3

Lobelia = experiment: as above; assay type: in vivo; conditions: 250 ppm ABA drench, 2.5 = unmarketable, 4 = severe
Source text: as §1, §2, §3

Euryops = experiment: as above; assay type: in vivo; conditions: 250 ppm ABA drench, 2.5 = unmarketable, 4 = severe
Source text: as §1, §2, §3

Dianthus = experiment: as above; assay type: in vivo; conditions: 250 ppm ABA drench, 2.5 = unmarketable, 4 = severe
Source text: as §1, §2, §3

Vinca = experiment: as above; assay type: in vivo
Source text: as §1, §2, §3

Pentas = experiment: as above; assay type: in vivo; conditions: 250 ppm ABA drench, 2.5 = unmarketable, 4 = severe
Source text: as §1, §2, §3

Celosia = experiment: as above; assay type: in vivo; conditions: 250 ppm ABA drench, 2.5 = unmarketable, 4 = severe
Source text: as §1, §2, §3

Rose = experiment: as above; assay type: in vivo; conditions: 250 ppm ABA drench, 2.5 = unmarketable, 4 = severe
Source text: as §1, §2, §3

Cuphea = experiment: as above; assay type: in vivo; conditions: 250 ppm ABA drench, 2.5 = unmarketable, 4 = severe
Source text: as §1, §2, §3

Petunia = experiment: as above; assay type: in vivo; conditions: 250 ppm ABA drench, 2.5 = unmarketable, 4 = severe
Source text: as §1, §2, §3

Lantana = experiment: as above; assay type: in vivo; conditions: 250 ppm ABA drench, 2.5 = unmarketable, 4 = severe
Source text: as §1, §2, §3

Marigold = experiment: as above; assay type: in vivo; conditions: 250 ppm ABA drench, 2.5 = unmarketable, 4 = severe
Source text: as §1, §2, §3

Calibrachoa = experiment: as above; assay type: in vivo
Source text: as §1, §2, §3

Hydrangea = experiment: as above; assay type: in vivo; conditions: 250 ppm ABA drench, 2.5 = unmarketable, 4 = severe
Source text: as §1, §2, §3

Snapdragon = experiment: as above; assay type: in vivo; conditions: 250 ppm ABA drench, 2.5 = unmarketable, 4 = severe
Source text: as §1, §2, §3

New Guinea Impatiens = experiment: as above; assay type: in vivo
Source text: as §1, §2, §3

Chrysanthemum = experiment: as above; assay type: in vivo; conditions: 250 ppm ABA drench, 2.5 = unmarketable, 4 = severe
Source text: as §1, §2, §3

Coleus = experiment: as above; assay type: in vivo; conditions: 250 ppm ABA drench, 2.5 = unmarketable, 4 = severe
Source text: as §1, §2, §3

Geranium cuttings = conditions: cited from earlier work
[1] = 250 ppm ABA drench, scale 1 = no abscission, 2.5 = unmarketable, 4 = severe
[2] = 250 ppm ABA drench, scale 1 = no yellowing, 2.5 = unmarketable, 4 = severe

(S)-5-(1-hydroxy-2,6,6,-trimethyl-4-oxo-2-cyclohexen-1-yl)-3-methyl-(2Z,4E)-pentadienoic acid [ABA]
Leaf or flower abscission, average rating (Pansy; [1]): 1
Lower leaf yellowing, average rating (Pansy; [2]): 3
ABA-induced leaf yellowing (in words) (Pansy; ABA application): often occurs
Leaf or flower abscission, average rating (Salvia; scale 1 = no abscission): 1
Lower leaf yellowing, average rating (Salvia; scale 1 = no yellowing): 1
Leaf or flower abscission, average rating (Alyssum; scale 1 = no abscission): 1
Lower leaf yellowing, average rating (Alyssum; scale 1 = no yellowing): 3.5
Leaf or flower abscission, average rating (Agapanthus; scale 1 = no abscission): 1
Lower leaf yellowing, average rating (Agapanthus; scale 1 = no yellowing): 2
Leaf or flower abscission, average rating (Poinsettia; scale 1 = no abscission): 2.5
Lower leaf yellowing, average rating (Poinsettia; scale 1 = no yellowing): 3
Leaf or flower abscission, average rating (Gazania; scale 1 = no abscission): 1
Lower leaf yellowing, average rating (Gazania; scale 1 = no yellowing): 3
Leaf or flower abscission, average rating (Impatiens; scale 1 = no abscission): 1
Lower leaf yellowing, average rating (Impatiens; scale 1 = no yellowing): 1
Leaf or flower abscission, average rating (Cosmos; scale 1 = no abscission): 1
Lower leaf yellowing, average rating (Cosmos; scale 1 = no yellowing): 1
Leaf or flower abscission, average rating (Lobelia; scale 1 = no abscission): 2.5
Lower leaf yellowing, average rating (Lobelia; scale 1 = no yellowing): 3
Leaf or flower abscission, average rating (Euryops; scale 1 = no abscission): 1
Lower leaf yellowing, average rating (Euryops; scale 1 = no yellowing): 1
Leaf or flower abscission, average rating (Dianthus; scale 1 = no abscission): 1
Lower leaf yellowing, average rating (Dianthus; scale 1 = no yellowing): 1
Leaf or flower abscission, average rating (Vinca; [1]): 3
Lower leaf yellowing, average rating (Vinca; [2]): 2.5
Flower abscission (in words) (Vinca; ABA application): often occurs
Leaf or flower abscission, average rating (Pentas; scale 1 = no abscission): 1
Lower leaf yellowing, average rating (Pentas; scale 1 = no yellowing): 1
Leaf or flower abscission, average rating (Celosia; scale 1 = no abscission): 1
Lower leaf yellowing, average rating (Celosia; scale 1 = no yellowing): 1
Leaf or flower abscission, average rating (Rose; scale 1 = no abscission): 1
Lower leaf yellowing, average rating (Rose; scale 1 = no yellowing): 4
Leaf or flower abscission, average rating (Cuphea; scale 1 = no abscission): 1
Lower leaf yellowing, average rating (Cuphea; scale 1 = no yellowing): 1
Leaf or flower abscission, average rating (Petunia; scale 1 = no abscission): 1
Lower leaf yellowing, average rating (Petunia; scale 1 = no yellowing): 1.9
Leaf or flower abscission, average rating (Lantana; scale 1 = no abscission): 1
Lower leaf yellowing, average rating (Lantana; scale 1 = no yellowing): 1
Leaf or flower abscission, average rating (Marigold; scale 1 = no abscission): 1
Lower leaf yellowing, average rating (Marigold; scale 1 = no yellowing): 1
Leaf or flower abscission, average rating (Calibrachoa; [1]): 1
Lower leaf yellowing, average rating (Calibrachoa; [2]): 3
Undesirable side effects (in words) (Calibrachoa; ABA application): severe leaf yellowing occur before wilting symptoms develop in the control and treated plants
Leaf or flower abscission, average rating (Hydrangea; scale 1 = no abscission): 1
Lower leaf yellowing, average rating (Hydrangea; scale 1 = no yellowing): 1
Leaf or flower abscission, average rating (Snapdragon; scale 1 = no abscission): 1
Lower leaf yellowing, average rating (Snapdragon; scale 1 = no yellowing): 1.3
Leaf or flower abscission, average rating (New Guinea Impatiens; [1]): 1
Lower leaf yellowing, average rating (New Guinea Impatiens; [2]): 1
Undesirable side effects (in words) (New Guinea Impatiens; ABA application): without any noticeable undesirable side effects
Leaf or flower abscission, average rating (Chrysanthemum; scale 1 = no abscission): 1
Lower leaf yellowing, average rating (Chrysanthemum; scale 1 = no yellowing): 1
Leaf or flower abscission, average rating (Coleus; scale 1 = no abscission): 1
Lower leaf yellowing, average rating (Coleus; scale 1 = no yellowing): 1
Leaf yellowing (Geranium cuttings): causes the undesirable effect of leaf yellowing
